# Shown are actives, neighbours in structure and some others; about 2.3% of the full set was active somewhere.
# Mito fusion act – inhibitors of mitochondrial division or activators of mitochondrial fusion; S. cerevisiae fusion-defective mutant growth rescue, CellTiterGlo 48 h; Potency, µM (doses to about 46.1 µM), for inactives: at the top dose growth rescue (activation), most hits filed as activators; 0.23% of 320,000 active; AID 485298; further: potency means the concentration at half of the fitted maximal effect; % of control where 0% means no effect; nearly all actives have a fitted effect of over 45% in size
#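 Temperature-sensitive fusion-defective S. cerevisiae (e.g. fzo1-1, mgm1-5) were grown with compound in YPEG medium (3% ethanol, 3% glycerol) for 48 hours at 37C. Growth rescue was measured as viability by CellTiterGlo luminescence after 10 minutes at ambient.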
# A549 viability – A549 cytotoxicity, counter-screen for Nrf2 inhibitors | A549 ARE-Fluc cells, CellTiter-Fluor viability, 18-24 h | Potency, µM (doses to about 46 µM), inactives show at the top dose activity change, negative = cytotoxicity, hits mostly inhibitors | 0.16% of 390,000 active | AID 504648; further: potency means the concentration at half of the fitted maximal effect; on the % scale 0 is the no-effect control and ±100 the full control effect
#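 Cytotoxicity counterscreen: CellTiter-Fluor fluorescence was measured in A549 ARE_Fluc cells after 18-24 h of compound exposure in a concentration series. The subsequent BugLite luminescent read reports ARE-luciferase activity.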
# miR-21 reporter – miR-21 reporter, rising signal | 340,000 tested, under 10 active | AID 2288 | HeLa miR-21 FLuc reporter, luciferase, 48 h | Potency, µM (titrated, usually from 38.3 µM), for inactives: at the highest dose reporter change, positive = more light; active = well fitted rising curve with a large enough effect; inconclusive = small, poorly fitted or top-dose-only effect; inactive = no such curve, though single readings can be large or run the other way;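 further: % of control where 0% means no effect; miR-21 action dims this reporter so a rising signal means less miR-21 action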
#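 HeLa cells endogenously expressing miR-21, stably carrying CMV-driven firefly luciferase with a downstream miR-21 binding site, 2000 cells/well. Titrations up to approximately 40 uM, 48 hours; luciferase luminescence read.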
# Nrf2 inh – blocks Nrf2 signaling; Potency, µM (highest dose often 46 µM), for the others: at the top dose activity change, negative = inhibition, hits mostly inhibitors; 2.1% of 360,000 active; A549 ARE-Fluc reporter, luciferase luminescence, 18-24 h; further: potency means the concentration at half of the fitted maximal effect; on the % scale 0 is the no-effect control and ±100 the full control effect; nearly all actives have a fitted effect of over 60% in size
#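 Nrf2 function is reported as luminescence of an ARE-controlled luciferase in A549 cells. Compounds were tested at several concentrations, and a CellTiter-Fluor read on the same wells flagged cytotoxicity.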
# Nrf2 activator – activates Nrf2 signaling; AREc32 ARE-luciferase reporter (MCF7-derived line), luminescence, 24 h; AID 624171; 0.31% of 410,000 active; Potency, µM (series often up to 46.1 µM), inactives show top-dose activation, hits mostly activators; further: potency means the concentration at half of the fitted maximal effect; % of control where 0% means no effect; nearly all actives have a fitted effect of over 65% in size
#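 Each well held 1000 AREc32 cells, which were incubated with compound for 24 hr at 37 deg C after overnight attachment, and ARE reporter activity was quantified by firefly luciferase luminescence.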
# The depositor's hits bear a star; ? = inconclusive; nt = no result given; ! = not active in a repeat; [ ] = dose if it differs, or a comment. Unless noted, the call rests on the fitted dose curve; in most records, active means well fitted curve in the direction sought with a large enough effect; inconclusive means small, poorly fitted or top-dose-only effect, or another doubt; inactive means no such curve, though single readings can be large; an effect the other way counts as inactive or inconclusive.
No. | SMILES | miR-21 reporter | Mito fusion act | A549 viability
1 | C=CC(=O)Nc1cccc(Oc2ccnc(Nc3ccc(N4CCN(C)CC4)cc3)n2)c1 | nt | nt | 1.6µM*
2 | CN1CCN(c2ccc(NC(=O)COc3cccc4ccccc34)cc2)CC1 | -8% | -8% | 1%
3 | C=CC(=O)Nc1cccc(N(C)c2ccnc(Nc3ccc(N4CCN(C)CC4)cc3)n2)c1 | nt | nt | 1µM*
4 | CCC(=O)N1CCc2cc(S(=O)(=O)NCCC(=O)Nc3ccc(OC)c(OC)c3)ccc21 | -1% | nt | 15%
5 | CCOc1cc(CNC(=O)Cn2c(=O)c3cccn3c3ccc(F)cc32)cc(OCC)c1OCC | -5% | nt | -1%
6 | Cc1noc2ncnc(N3CCN(c4ccc(F)cc4)CC3)c12 | -2% | -8% | -6%
7 | COc1ccc(-c2cc(C(F)(F)F)nc(NCc3ccc(Cl)cc3)n2)cc1 | 11% | nt | -10%
8 | FC(F)(F)c1cc(-c2ccc(Cl)cc2)nc(NCc2cccnc2)n1 | 23% | 1% | 6%[1.84 µM]
9 | O=C(O)c1ccccc1C(=O)Nc1ccc(Oc2cccc3ccccc23)cc1 | ? | 5% | -10%
10 | COc1ccc(C(=O)Nc2nc3ccccc3n2CCOc2ccc(Cl)cc2)cc1 | -33% | nt | -2%

No. | Nrf2 inh | Nrf2 activator
1 | ? | 17%
2 | -4% | 0%
3 | ? | 6%
4 | 11% | 0%
5 | -2% | 1%
6 | 7.3µM* | 0%
7 | -7%[9.27 µM] | 0%
8 | 15µM* | 3%
9 | 21µM* | -2%
10 | -11% | 4%

# Next section:
No. | SMILES | miR-21 reporter | Mito fusion act | A549 viability
11 | CCN(c1ccccc1)S(=O)(=O)c1ccc(C(=O)Nc2nnc(COC)o2)cc1 | 20% | 2% | -16%
12 | CCN(c1ccccc1)S(=O)(=O)c1ccc(C(=O)Nc2nnc(CSC)o2)cc1 | ? | 1% | ?
13 | CCN(c1ccccc1)S(=O)(=O)c1ccc(C(=O)Nc2nnc(C3CC3)o2)cc1 | ? | 2% | ?
14 | CN(c1ccccc1)S(=O)(=O)c1ccc(C(=O)Nc2nnc(C3CC3)o2)cc1 | ? | 0% | ?
15 | O=C(Nc1cc(Cl)cc(Cl)c1)c1ccc(F)c(S(=O)(=O)NC2CCCCC2)c1 | 16% | nt | ?
16 | CCOc1nc(C#N)nc(N2CCCCC2)n1 | 13% | 17% | -20%
17 | COc1cccc(C2c3c(ncn(-c4ccc5c(c4)OCO5)c3=N)Oc3ccc4ccccc4c32)c1 (stereo not drawn) | nt | nt | -7%
18 | C=CCSC1=N/C(=C\C=C\c2ccco2)C(=O)S1 | -5% | 2% | -19%
19 | Cn1nc(C(F)(F)F)c(C(=O)Nc2ccc(F)cc2F)c1Sc1cccc(Cl)c1 | 0% | 6% | ?
20 | COCCCNc1oc(/C=C/c2cc(OC)c(OC)c(OC)c2)nc1C#N | 10% | nt | -2%

No. | Nrf2 inh | Nrf2 activator
11 | 23µM* | -1%
12 | 12µM* | 1%
13 | 12µM* | 0%
14 | 23% | -1%
15 | nt | 6%
16 | 16µM* | 5%
17 | 7% | nt
18 | -2% | 13µM*
19 | 18µM* | 0%
20 | -11% | 15%

# Compounds from the list above that have an aryl methoxy group (5):
No. | SMILES | miR-21 reporter | Mito fusion act | A549 viability
4 | CCC(=O)N1CCc2cc(S(=O)(=O)NCCC(=O)Nc3ccc(OC)c(OC)c3)ccc21 | -1% | nt | 15%
7 | COc1ccc(-c2cc(C(F)(F)F)nc(NCc3ccc(Cl)cc3)n2)cc1 | 11% | nt | -10%
10 | COc1ccc(C(=O)Nc2nc3ccccc3n2CCOc2ccc(Cl)cc2)cc1 | -33% | nt | -2%
17 | COc1cccc(C2c3c(ncn(-c4ccc5c(c4)OCO5)c3=N)Oc3ccc4ccccc4c32)c1 (stereo not drawn) | nt | nt | -7%
20 | COCCCNc1oc(/C=C/c2cc(OC)c(OC)c(OC)c2)nc1C#N | 10% | nt | -2%

No. | Nrf2 inh | Nrf2 activator
4 | 11% | 0%
7 | -7%[9.27 µM] | 0%
10 | -11% | 4%
17 | 7% | nt
20 | -11% | 15%

# Next results.
No. | SMILES | miR-21 reporter | Mito fusion act | A549 viability
21 | CCCCCCn1nc(C(=O)OCC(=O)c2c(N)n(C)c(=O)n(C)c2=O)c2ccccc2c1=O | 0% | 2% | -4%
22 | Cn1c(N)c(C(=O)COC(=O)c2nc(Cl)ccc2Cl)c(=O)n(C)c1=O | -4% | -4% | 1%
23 | Cn1c(N)c(C(=O)COC(=O)c2cccnc2Cl)c(=O)n(C)c1=O | -6% | -3% | -1%
24 | CCCCCn1nc(C(=O)OCC(=O)c2c(N)n(C)c(=O)n(C)c2=O)c2ccccc2c1=O | 1% | 11% | -7%
25 | CCN(c1ccccc1)S(=O)(=O)c1cc(C(=O)OCC(=O)c2c(N)n(C)c(=O)n(C)c2=O)ccc1C | nt | nt | ?
26 | CCOc1cc(CNC(=O)c2ccc3c(c2)N(C)C(=O)C2CCCCN32)ccc1OC (stereo not drawn) | 4% | nt | 15%
27 | COCc1oc2ccc(NS(=O)(=O)c3ccc(C)cc3)cc2c1C(=O)OC | 23% | nt | -2%
28 | CCOc1ccccc1C(=O)Nc1ccc(S(=O)(=O)Nc2ncccn2)cc1 | -17% | nt | -3%
29 | CC(C)(C)c1ccc(Cn2nnc3c(=O)[nH]c(C4CCCN(C(=O)c5cccs5)C4)nc32)cc1 (stereo not drawn) | -3% | 0% | -18%
30 | CC(C)(C)c1ccc(Cn2nnc3c(=O)[nH]c(C4CCCN(C(=O)Cc5cccs5)C4)nc32)cc1 (stereo not drawn) | 14% | 0% | 2%[1.84 µM]

No. | Nrf2 inh | Nrf2 activator
21 | 23µM* | -1%
22 | 6% | 2.2µM*
23 | 2% | 1%
24 | -24% | 0%
25 | 18µM* | 3%
26 | nt | 10%
27 | -16% | 1%
28 | ? | -1%
29 | 23µM* | 2%
30 | ? | 3%

# Continued:
No. | SMILES | miR-21 reporter | Mito fusion act | A549 viability
31 | CC(C)(C)c1ccc(Cn2nnc3c(=O)[nH]c(C4CCN(C(=O)c5ccco5)CC4)nc32)cc1 | -4% | 1% | ?
32 | CC1CCc2c(nc3ncnn3c2NCCc2ccccc2F)C1 (stereo not drawn) | -7% | 1% | ?
33 | Cc1cccc(-c2nc(SCC(=O)N3CCc4ccccc43)c3c(=O)n(C)c(=O)n(C)c3n2)c1 | 1% | nt | 8%
34 | COc1ccccc1CNc1ncc(-c2ccc(F)cc2)n1C | -7% | -3% | -1%
35 | COc1ccc(CNc2ncc(-c3ccc(F)cc3)n2C)c2ccccc12 | 15% | -8% | 0%
36 | CCOc1ccc(NC(=O)CN(c2ccc(CC)cc2)S(=O)(=O)c2c(C)noc2C)cc1 | 4% | 5% | -7%
37 | CCOc1ccccc1NC(=O)c1c(NC(=O)COc2ccccc2)sc2c1CCCCC2 | -5% | nt | -1%
38 | CCc1ccc2[nH]c(=O)c(C(c3nnnn3CC3CCCO3)N3CCCc4ccccc43)cc2c1 (stereo not drawn) | -1% | -4% | ?
39 | Cc1cc2cc(C(c3nnnn3CC3CCCO3)N3CCCc4ccccc43)c(=O)[nH]c2cc1C (stereo not drawn) | -14% | 4% | -28%
40 | CC(=O)Nc1ccccc1OC1=N[S+](=O)([O-])c2ccccc21 | nt | nt | 10%

No. | Nrf2 inh | Nrf2 activator
31 | 26µM* | 3%
32 | 3.3µM* | 0%
33 | nt | -1%
34 | -5% | 0%
35 | 21µM* | -2%
36 | nt | -1%
37 | 3% | -1%
38 | 23µM* | 0%
39 | ? | 4%
40 | 11% | nt

# Carrying on.
No. | SMILES | miR-21 reporter | Mito fusion act | A549 viability
41 | Cc1cc(C)n(-c2ccc(C(=O)Nc3cc(S(=O)(=O)N(C)C)ccc3Cl)cc2)n1 | 13% | 2% | 1%
42 | O=C(/C=C/c1ccco1)OCc1nnc(-c2ccc(Cl)cc2)o1 | -5% | 0% | 1%
43 | O=C(OCc1nnc(-c2ccccc2)o1)c1ccc(Cl)cc1 | -3% | 6% | 1%
44 | O=C(/C=C/c1ccco1)OCc1nnc(-c2ccccc2)o1 | -9% | 5% | 1%
45 | CCOC(=O)c1[nH]c2ccccc2c1NC(=O)c1ccc(OC)c(OC)c1 | 2% | nt | -4%
46 | CN1CCN(CCCN2c3ccccc3Sc3ccc(Cl)cc32)CC1 | ? | -84% | 18µM*!
47 | CCSc1ccc2c(c1)N(CCCN1CCN(C)CC1)c1ccccc1S2 | nt | -8% | 9%

No. | Nrf2 inh | Nrf2 activator
41 | 18µM* | -1%
42 | ? | 14µM*
43 | 17% | 0%
44 | 1% | 11µM*
45 | -26%[9.27 µM] | 3%
46 | 8.2µM*! | -4%
47 | -4% | 6%

# Screening results from PubChem BioAssay.
